Earlier results, collected in patent US8834942B2, “Enhanced absorption of oregano derived oils” (priority 2010, dated 2014).

Conditions: single emulsifier

Substance: tocopheryl polyethylene glycol succinate
- HLB value: about 13
